Measurements taken from patent US20260207765A1, “COVALENTLY-MODIFIED STEROID ACID-PEPTIDES HAVING ENHANCED STABILITY AND/OR BIOLOGICAL ACTIVITY” (priority 2022, published 2026).

Tested on: JIMT-1 breast cancer cells
Assay: Drug conjugates cell cytotoxicity assay (PrestoBlue)
Format: cell-based
Details: 72 hours
Procedure: A solution of either the antibody Trastuzumab (Herceptin™), or the antibody-drug conjugate thereof Trastuzumab emtansine (T-DM1), was reacted with the bifunctional linker NHS-DBCO at the desired ratios. The DBCO/antibody ratio was determined by UV-VIS absorbance spectrometry, adjusting calculations accordingly. The solution was then left to stand under stirring and in the dark for about 1 hour. The reaction was then completed by adding 50 μL per mL of a IM solution of Tris base at pH 8, and leaving to stand at room temperature for 5 minutes. […]
In a T75 flask of confluent JIMT-1 cells (at least 75%), the culture medium was removed, and 2 mL of trypsin was then added and incubated at 37° C. for about 5 minutes or until the cells detached. The trypsin was inactivated by adding 10 mL of culture medium, the cells were centrifuged at 950 rpm for 5 minutes at 4° C., viable cells were visualized with trypan blue and counted using a hematocytometer. […] Fluorescence (excitation: 535-560 nm, emission: 590-615 nm) was measured. The cells were further incubated for another 30 minutes, and a second fluorescence reading was taken.

T-DM1-N3-VC-(CDCA-C-SV40)2: Trastuzumab emtansine linked to the dimer via N-terminal N3 and protease-cleavable VC linker
cytotoxicity compared with the unconjugated antibody / ADC: enhance the cytotoxic activity

Trastuzumab-N3-VC-(CDCA-C-SV40)2: Trastuzumab linked to the dimer via N-terminal 6-azido-L-lysine N3 and protease-cleavable valine-citrulline linker
cytotoxicity compared with the unconjugated antibody / ADC: impart cytotoxic activity
